# scFv variants of Ab-14 (light chain) against a SARS-CoV-2 spike peptide

Values reported by Li et al. 2023, doi:10.1038/s41467-023-39022-2 (FLAb copy).

Target: peptide PDVDLGDISGINAS, taken from heptad repeat 2 (HR2) of SARS-CoV-2 spike.

Parent scFv Ab-14: VH joined to VL by a (GGGGS)3 linker. Changes lie in the light chain CDRs alone.
VH: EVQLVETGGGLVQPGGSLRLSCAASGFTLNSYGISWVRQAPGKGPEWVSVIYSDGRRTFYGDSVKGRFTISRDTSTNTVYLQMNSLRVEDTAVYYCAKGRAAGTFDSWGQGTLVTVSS
VL: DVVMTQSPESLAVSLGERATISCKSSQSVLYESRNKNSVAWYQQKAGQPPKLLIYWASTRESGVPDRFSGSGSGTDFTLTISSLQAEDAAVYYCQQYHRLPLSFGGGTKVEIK

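The starting antibody came from a phage panning campaign against this peptide. These sequences belong to a second round, designed from the earlier measurements on random variants of the parent. Their group label is 14L_GP_Gibbs (GP: Gaussian process model; Gibbs: Gibbs sampling; a sequence that several methods proposed may carry one label only). The assay is AlphaSeq: two haploid yeast populations carry antibody and antigen on their surface. The frequency of each diploid, read from paired DNA barcodes, reflects how well the two displayed proteins bind. A regression on co-assayed BCL2-family reference pairs converts the normalised counts of each replicate to an apparent Kd. There are six technical replicates.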

Substitutions are numbered in sequence along the VL above, starting at 1 (not Kabat).
Numbers give log10(Kd / nM), so 0 is 1 nM and 3 is 1 µM. Smaller is tighter.
A mean of the replicates is given; it leaves out those without a signal.
Where no diploid with the target was found in that replicate, the entry reads "ND": below detection, most likely a poor binder, though not proof of it.
The authors' rule: three or more of the six replicates give a measured affinity, fewer mean a poor binder.
A sequence measured in both rounds can read differently, since the two assays cover different ranges.
Three control strains display no target. For all light chain designs, 4% of the pairings with them gave a signal, with a median of 2.64 and one signal in twenty below 1.59, so weak values seen in few replicates may be background. Also given: how often the same scFv was detected with the empty control strains, with their mean in brackets.

{"changes": "S25F V29W S33Q N35Q K36V W56N T59Q E61L S62L", "replicates, log10 nM": "0.47 0.19 0.45 0.08 -0.09 0.29", "mean, log10 nM": "0.23", "empty controls": "1/18 (2.69)"}
{"changes": "S25I L30E Y31M E32Q S33Q K36P W56S E61L", "replicates, log10 nM": "0.47 0.11 0.32 0.19 0.09 0.17", "mean, log10 nM": "0.23", "empty controls": "1/18 (2.63)"}
{"changes": "K24I S25L S26Q V29M N35M W56N T59Q E61W", "replicates, log10 nM": "0.61 0.42 0.41 0.49 0.35 0.55", "mean, log10 nM": "0.47", "empty controls": "1/18 (3.32)"}
{"changes": "S26L Q27I Y31D S33E K36D T59H E61L", "replicates, log10 nM": "1.67 ND 2.42 2.55 ND ND", "mean, log10 nM": "2.21", "empty controls": "0/18"}
{"changes": "S25V S26Q V29M K36H S38N W56A T59D", "replicates, log10 nM": "-0.41 -0.39 -0.38 -0.44 -0.64 -0.26", "mean, log10 nM": "-0.42", "empty controls": "1/18 (4.99)"}
{"changes": "S25V S28L V29G E32G S33Q K36A W56E S62D", "replicates, log10 nM": "-0.04 -0.23 -0.44 -0.44 -0.28 -0.23", "mean, log10 nM": "-0.28", "empty controls": "0/18"}
{"changes": "S25F S26Q S28A V29M W56N T59C", "replicates, log10 nM": "-0.09 0.00 0.13 -0.19 0.11 0.20", "mean, log10 nM": "0.03", "empty controls": "2/18 (4.48)"}
{"changes": "S25M S26P V29W E32D R34Q K36S W56H T59Q E61M", "replicates, log10 nM": "0.06 0.00 -0.24 -0.32 -0.09 0.20", "mean, log10 nM": "-0.06", "empty controls": "0/18"}
{"changes": "S25W S26M V29D L30D Y31Q K36H W56H E61C", "replicates, log10 nM": "1.19 0.90 1.44 1.08 0.78 1.75", "mean, log10 nM": "1.19", "empty controls": "2/18 (3.13)"}
{"changes": "S25L S28M L30D K36M S38N W56E", "replicates, log10 nM": "-0.10 -0.17 -0.23 -0.36 -0.32 -0.17", "mean, log10 nM": "-0.22", "empty controls": "3/18 (3.05)"}
{"changes": "S25L V29M W56E E61L Q96D", "replicates, log10 nM": "0.20 -0.20 -0.04 -0.47 0.38 0.29", "mean, log10 nM": "0.03", "empty controls": "0/18"}
{"changes": "K24Y S25L W56N S62M S103I", "replicates, log10 nM": "0.45 0.21 0.12 0.02 0.20 0.34", "mean, log10 nM": "0.22", "empty controls": "1/18 (3.86)"}
{"changes": "S25L Y31G E32Q S33W W56H S62Q Q96D", "replicates, log10 nM": "1.18 0.98 1.29 1.34 1.10 1.43", "mean, log10 nM": "1.22", "empty controls": "1/18 (2.53)"}
{"changes": "S25Y S28L Y31E K36M W56N S62E", "replicates, log10 nM": "0.21 0.02 0.10 -0.15 0.10 0.15", "mean, log10 nM": "0.07", "empty controls": "3/18 (1.98)"}
{"changes": "S25L L30K S33D K36W S38N W56A T59K Q96A", "replicates, log10 nM": "0.39 0.28 0.14 0.07 0.42 0.31", "mean, log10 nM": "0.27", "empty controls": "0/18"}
{"changes": "S26A Q27Y V29E R34A W56S E61S", "replicates, log10 nM": "0.55 0.35 0.38 0.20 0.13 0.33", "mean, log10 nM": "0.32", "empty controls": "3/18 (2.65)"}
{"changes": "S25F V29N S33D N35M K36Q S38P W56N T59Q S62Q", "replicates, log10 nM": "0.18 0.26 0.00 0.04 0.04 0.18", "mean, log10 nM": "0.12", "empty controls": "1/18 (3.17)"}
{"changes": "S25L L30E Y31V E32L K36D W56N S62M", "replicates, log10 nM": "-0.11 -0.24 -0.37 -0.36 -0.23 -0.30", "mean, log10 nM": "-0.27", "empty controls": "0/18"}
{"changes": "S25L Q27P L30M E32W S33M W56N E61M", "replicates, log10 nM": "0.00 -0.10 -0.05 -0.34 -0.18 0.03", "mean, log10 nM": "-0.11", "empty controls": "2/18 (2.65)"}
{"changes": "S25V S26P Q27F S38A W56Q", "replicates, log10 nM": "1.42 0.46 0.86 0.58 0.99 0.90", "mean, log10 nM": "0.87", "empty controls": "0/18"}
{"changes": "S25L S26D V29E E32Q N37Q W56N T59E", "replicates, log10 nM": "0.21 0.07 0.04 0.04 0.43 0.12", "mean, log10 nM": "0.15", "empty controls": "1/18 (2.90)"}
{"changes": "S25Q S26Q Q27F V29G L30M Y31M E32G W56M", "replicates, log10 nM": "ND ND ND ND 3.31 2.44", "mean, log10 nM": "2.88", "empty controls": "0/18"}
{"changes": "S25L V29T R34G N35M W56N T59K S62Q", "replicates, log10 nM": "0.58 0.69 0.96 2.08 1.24 1.14", "mean, log10 nM": "1.12", "empty controls": "1/18 (2.40)"}
{"changes": "S25M S26M V29Q S33D N35M K36S S38A W56N T59Q E61M", "replicates, log10 nM": "0.15 0.04 -0.16 -0.35 -0.14 -0.01", "mean, log10 nM": "-0.08", "empty controls": "0/18"}
{"changes": "S25L S26Q S28W V29D W56H T59E Q96C", "replicates, log10 nM": "0.10 -0.06 -0.06 -0.03 0.11 0.05", "mean, log10 nM": "0.02", "empty controls": "2/18 (3.12)"}
{"changes": "S25I V29W S33P K36S W56N E61L S62R", "replicates, log10 nM": "0.73 0.73 0.38 0.30 0.83 0.71", "mean, log10 nM": "0.61", "empty controls": "1/18 (2.28)"}

The last 2 entries again:

{"changes": "S25L S26Q S28W V29D W56H T59E Q96C", "replicates, log10 nM": "0.10 -0.06 -0.06 -0.03 0.11 0.05", "mean, log10 nM": "0.02", "empty controls": "2/18 (3.12)"}
{"changes": "S25I V29W S33P K36S W56N E61L S62R", "replicates, log10 nM": "0.73 0.73 0.38 0.30 0.83 0.71", "mean, log10 nM": "0.61", "empty controls": "1/18 (2.28)"}